Results reported in ChEMBL document CHEMBL2440048, “Novel carvedilol analogues that suppress store-overload-induced Ca2+ release” (J Med Chem, 2013).

Assay: Inhibition of RyR2 R4496C mutant (unknown origin)-mediated store-overload induced calcium release expressed in HEK293 cells after 8 to 10 mins by fura-2/AM dye-based fluorescence assay
Assay type: cell-based
Details: Homo sapiens

Compound | IC50 [µM]
COc1ccccc1OCCN1CC(COc2cccc3[nH]c4ccccc4c23)OC1=O (centres undefined) | 86.3
COc1cc(Cl)c(Cl)cc1OCCN1CC(COc2cccc3[nH]c4ccccc4c23)OC1=O (centres undefined) | 97.2
O=C1OC(COc2cccc3[nH]c4ccccc4c23)CN1CCOC1CCCCC1 (centres undefined) | 113
O=C1OC(COc2cccc3[nH]c4ccccc4c23)CN1CCOc1ccccc1O (centres undefined) | 16.1
COc1ccccc1OCCN(C)CC(O)COc1cccc2[nH]c3ccccc3c12 (centres undefined) | 18.3
COc1ccccc1OCCNCC(O)COc1cccc2c1c1ccccc1n2C (centres undefined) | 35.2
COc1ccccc1OCCNCC(O)CCOc1cccc2[nH]c3ccccc3c12 (centres undefined) | 16.8
COc1ccccc1OCCN1CCC(COc2cccc3[nH]c4ccccc4c23)OCC1=O (centres undefined) | 86.7
COc1ccccc1OCC(O)CNCCOc1cccc2[nH]c3ccccc3c12 (centres undefined) | 24.4
COc1ccccc1OCC1CN(CCOc2cccc3[nH]c4ccccc4c23)C(=O)CO1 (centres undefined) | 26.7
COc1ccccc1OCCN1CC(COc2ccc3[nH]c4ccccc4c3c2)OCS1(=O)=O (centres undefined) | 436
COc1ccccc1OCCNCC(O)CCCCOc1ccc2[nH]c3ccccc3c2c1 (centres undefined) | 15.9
COc1ccccc1OCCNCC(O)COc1ccc2c(c1)[nH]c1ccccc12 (centres undefined) | 17.8
COc1ccccc1OCCN1CC(COc2ccc3c(c2)[nH]c2ccccc23)OCC1=O (centres undefined) | 19.8
COc1ccccc1OCCN1CC(CCOc2ccc3c(c2)[nH]c2ccccc23)OC1=O (centres undefined) | 354
OC(CNCCOc1ccccc1C(F)(F)F)COc1ccc2c(c1)[nH]c1ccccc12 (centres undefined) | 15.4
OC(CNCCOc1ccccc1F)COc1ccc2c(c1)[nH]c1ccccc12 (centres undefined) | 20.1
COc1ccccc1OCCNCC(O)COc1ccc2[nH]c3c(c2c1)CCCC3 (centres undefined) | 17.4
COc1ccccc1OCCNCC(O)COc1cccc2c1-c1ccccc1C2 (centres undefined) | 17
COc1ccccc1OCCNCC(O)COc1cccc2c1-c1ccccc1C2=O (centres undefined) | 30.1
COc1ccccc1OCCNCC(O)COc1cccc(Nc2ccccc2)c1 (centres undefined) | 18.2
COc1ccccc1OCCNCC(O)COc1ccc2c(c1)Nc1ccccc1S2(=O)=O (centres undefined) | 65.8
COc1ccccc1OCCNCC(O)COC12CC3CC(CC(C3)C1)C2 (centres undefined) | 75.6
COc1ccccc1OCCNCC(O)COC1C2CC3CC(C2)CC1C3 (centres undefined) | 29.7

Compound | IC50 [µM]
COc1ccccc1OCCNCC(O)COCC12CC3CC(CC(C3)C1)C2 (centres undefined) | 28
COc1ccccc1OCCNCC(O)COc1ccc2c(c1)CCC(=O)N2 (centres undefined) | 463
COc1ccccc1OCCNCC(O)COc1ccc2[nH]ccc2c1 (centres undefined) | 101
COc1ccccc1OCCNCC(O)COc1ccc2cn[nH]c2c1 (centres undefined) | 545
O=C1COc2ccccc2N1CC(O)COc1cccc2[nH]c3ccccc3c12 (centres undefined) | 15.8
OC(CCOc1cccc2[nH]c3ccccc3c12)CN1CCOc2ccccc21 (centres undefined) | 19.7
COc1ccccc1N1CCN(CC(O)COc2cccc3[nH]c4ccccc4c23)CC1 (centres undefined) | 34.9
OC(COc1cccc2[nH]c3ccccc3c12)CN1CCN(c2ccccc2)CC1 (centres undefined) | 62.7
COc1ccccc1OCC1COC(COc2cccc3[nH]c4ccccc4c23)=N1 (centres undefined) | 19.8
COc1ccccc1Oc1ccccc1NCC(O)COc1cccc2[nH]c3ccccc3c12 (centres undefined) | 94.5
COc1ccccc1OCCNCC(O)COc1ccc2[nH]c3ccc(Br)cc3c2c1Br (centres undefined) | 69.8
COc1ccc2c(c1)CN(C(=O)CCN1CCC(Cc3ccccc3)CC1)CCS2 | 34.3
OC(CNCCOc1cc(Cl)c(Cl)cc1Cl)COc1cccc2[nH]c3ccccc3c12 (centres undefined) | 28
CSc1ccccc1OCCNCC(O)COc1cccc2[nH]c3ccccc3c12 (centres undefined) | 16.4
OC(CNCCOc1ccccn1)COc1cccc2[nH]c3ccccc3c12 (centres undefined) | 54.9
OC(CNCCOC1CCCCC1)COc1cccc2[nH]c3ccccc3c12 (centres undefined) | 35.2
COc1ccccc1OCCN1CC(COc2cccc3[nH]c4ccccc4c23)OCC1=O (centres undefined) | 26.1
O=C1COC(COc2cccc3[nH]c4ccccc4c23)CN1CCOC1CCCCC1 (centres undefined) | 52.9
COc1ccccc1OCCN1CCOC(COc2cccc3[nH]c4ccccc4c23)C1 (centres undefined) | 22.9
COc1cc(Cl)c(Cl)cc1OCCN1CCOC(COc2cccc3[nH]c4ccccc4c23)C1 (centres undefined) | 86.7
Clc1cc(Cl)c(OCCN2CCOC(COc3cccc4[nH]c5ccccc5c34)C2)cc1Cl (centres undefined) | 364
COc1ccccc1OCCNCC(O)COc1cccc2[nH]ccc12 (centres undefined) | 213
COc1ccccc1OCCNCC(O)COc1cccc2[nH]c3ccccc3c12 (centres undefined) [CARVEDILOL] | 15.9

Further molecules by falling IC50, results first:

IC50 [µM] | Compound
15.1 | COc1ccccc1OCCNCC(O)COc1cccc2ccccc12 (centres undefined)
15.1 | Cc1ccccc1OCCNCC(O)COc1cccc2[nH]c3ccccc3c12 (centres undefined)
14.6 | COc1ccccc1OCCN1CC(CCOc2cccc3[nH]c4ccccc4c23)OCC1=O (centres undefined)
14.6 | COc1ccccc1OCCNCC(O)CCOc1ccc2c(c1)[nH]c1ccccc12 (centres undefined)
13.5 | COc1ccccc1OCCNCCC(O)COc1cccc2[nH]c3ccccc3c12 (centres undefined)
12.4 | COc1ccccc1OCCNCC(O)COc1cccc2c1[nH]c1ccccc12 (centres undefined)
11.6 | COc1ccccc1SCCNCC(O)COc1cccc2[nH]c3ccccc3c12 (centres undefined)
11.4 | COc1ccccc1OCCNCC(O)CCCCOc1cccc2[nH]c3ccccc3c12 (centres undefined)
11.2 | COc1cc(Cl)c(Cl)cc1OCCNCC(O)COc1cccc2[nH]c3ccccc3c12 (centres undefined)
11 | COc1ccccc1OCCNCC(O)COc1ccc2oc3ccccc3c2c1 (centres undefined)
10.2 | COc1ccccc1COCCNCC(O)COc1cccc2[nH]c3ccccc3c12 (centres undefined)
10.2 | COc1cc(F)ccc1OCCNCC(O)COc1ccc2c(c1)[nH]c1ccccc12 (centres undefined)
9.77 | COc1ccccc1OCCNCC(O)CCOc1cccc2ccccc12 (centres undefined)
9.74 | COc1ccccc1OCCNCCC(O)COc1ccc2[nH]c3ccccc3c2c1 (centres undefined)
9.72 | COc1ccccc1OCCNCC(O)CCOc1ccc2[nH]c3ccccc3c2c1 (centres undefined)
9.51 | OC(CNCCOCc1ccccc1)COc1cccc2[nH]c3ccccc3c12 (centres undefined)
8.61 | OC(COc1ccc2[nH]c3ccccc3c2c1)CN1CCOc2ccccc21 (centres undefined)
8.52 | OC(CNCCCc1ccccc1)COc1cccc2[nH]c3ccccc3c12 (centres undefined)
7.74 | COc1ccccc1OCCNCC(O)COc1ccc2[nH]c3ccccc3c2c1 (centres undefined)
7.62 | Oc1ccccc1OCCNCC(O)COc1cccc2[nH]c3ccccc3c12 (centres undefined)
7.43 | COc1ccccc1CCCNCC(O)COc1cccc2[nH]c3ccccc3c12 (centres undefined)
6.26 | COc1ccccc1OCCNCC(O)COc1ccc2[nH]c3ccc(F)cc3c2c1 (centres undefined)
6.2 | COc1ccccc1OCCN1CC(COc2ccc3[nH]c4ccccc4c3c2)OCC1=O (centres undefined)
5.76 | OC(COc1cccc2[nH]c3ccccc3c12)CN1CCOc2ccccc21 (centres undefined)
5.7 | COc1ccccc1OCCNCC(O)COc1ccc2c(c1)Nc1ccccc1S2 (centres undefined)
5.5 | COc1ccccc1OCCNCC(O)COc1ccc2c(c1)[nH]c1ccc(F)cc12 (centres undefined)
4.37 | COc1ccccc1OCCNCC(O)COc1ccc2c(c1)[nH]c1c(F)cc(F)cc12 (centres undefined)
